The target of one assay is hepsin (Homo sapiens, UniProt P05981). Kind of assay: Enzymatic assay of hepsin with chromogenic substrate S2366. On the procedure:
(§1) The reversible active site inhibitor HI-10331 (Genentech, Inc.) (having the molecule structure depicted in FIG. 10, and disclosed in U.S. Pat. No. 6,472,393) or HAI-2 were incubated with 0.5 nM hepsin, 0.5 nM matriptase and 10 nM uPA for 30 min in Hepes buffer (20 mM Hepes, pH 7.5, 150 mM NaCl, 5 mM CaCl2, 0.01% Triton X-100) at room temperature. The chromogenic substrates S2366 (for hepsin), S2765 (for matriptase) and S2444 (for uPA) were added at a concentration corresponding to their respective Km values, which were determined in separate experiments. After substrate addition, the linear rates of the increase in absorbance at 405 nm was measured on a kinetic microplate reader (Molecular Devices, Sunnyvale, Calif.).
(§2) For HI-10331, the inhibitor concentration that gave a 50% inhibition of the enzymatic activity (IC50) was determined by fitting the data to a four-parameter equation (Kaleidagraph version 3.6, Synergy Software, Reading, Pa.). The Ki values were calculated according to the relationship Ki=IC50/(1+[S]/Km) (23) using the experimentally determined IC50 and Km values for each enzyme-substrate pair. For HAI-2, the apparent Ki values (Ki^*) were determined by fitting the data to the equation for tight binding inhibition (24,25).

The chains behind the UniProt entries cited, without tags or fusion partners. Residues count along the entry.
UniProt P05981, 45-417 limits assumed: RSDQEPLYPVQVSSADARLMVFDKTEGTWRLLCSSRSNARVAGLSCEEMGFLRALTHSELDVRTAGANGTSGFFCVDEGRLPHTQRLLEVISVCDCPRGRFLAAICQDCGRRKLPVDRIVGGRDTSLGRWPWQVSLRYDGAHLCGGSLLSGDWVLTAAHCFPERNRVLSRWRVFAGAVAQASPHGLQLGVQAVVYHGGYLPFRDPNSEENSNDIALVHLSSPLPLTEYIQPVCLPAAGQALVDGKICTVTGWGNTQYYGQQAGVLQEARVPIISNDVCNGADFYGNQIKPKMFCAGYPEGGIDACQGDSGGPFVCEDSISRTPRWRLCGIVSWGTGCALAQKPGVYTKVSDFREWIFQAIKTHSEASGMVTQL
UniProt Q9Y5Y6, 615-854 limits assumed: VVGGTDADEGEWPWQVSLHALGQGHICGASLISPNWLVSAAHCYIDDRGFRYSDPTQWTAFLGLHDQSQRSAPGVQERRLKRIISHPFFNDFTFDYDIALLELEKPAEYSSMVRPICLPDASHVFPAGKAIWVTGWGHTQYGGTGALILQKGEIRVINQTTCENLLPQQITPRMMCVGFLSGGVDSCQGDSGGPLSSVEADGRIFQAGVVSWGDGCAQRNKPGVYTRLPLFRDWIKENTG

The next assay has as its target matriptase (Homo sapiens, UniProt Q9Y5Y6). The assay is described as follows: Enzymatic assay of matriptase with chromogenic substrate S2765. To be noted: read-out: Ki ± SD; 0.5 nM matriptase, S2765 at Km; Ki=IC50/(1+[S]/Km). On the procedure: as §1, §2
The next assay addresses uPA (Homo sapiens, UniProt P00749). Kind of assay: Enzymatic assay of uPA with chromogenic substrate S2444. Here is the method: as §1, §2
Assay [1] relates to LnCaP-34 cells (hepsin-overexpressing). Kind of assay: Pro-uPA activation by LnCaP-34 cells (two-stage enzymatic assay). To be noted: LnCaP-34, 10 μM HI-10331, 100 nM pro-uPA, 37° C.; mean of two experiments. On the procedure:
(§3) Confluent LnCaP-34 and LnCaP-17 cells were washed with HBSA-Glucose buffer (20 mM Hepes pH 7.5, 150 mM NaCl, 5 mM CaCl2, 0.05 mg/ml BSA, 5 mM glucose) and 0.8 ml of 100 nM pro-uPA in pre-warmed HBSA-Glucose buffer was added to the cell layers. The inhibitors KD1 or HI-10331 were added to give final concentrations of 1 μM and 10 μM, respectively. The culture plates were kept at 37° C. and 50 μl samples were withdrawn at different time points, supplemented with 0.2 ml of […] S2444 in Hepes buffer and the increase in absorbance at 405 nm measured on a kinetic microplate reader. Cell numbers were determined at the end of the experiments. The concentration of formed uPA in each sample was calculated from a standard curve of enzymatically converted pro-uPA and normalized to 10^6 cells. After subtracting the background levels of uPA formed in the absence of cell layer, the linear rates of uPA formation/10^6 cells were determined.

The next assay deals with LnCaP-17 cells. The assay is described as follows: Pro-uPA activation by LnCaP-17 cells (two-stage enzymatic assay). On the procedure: as §3

Molecules are shown by their SMILES. Marks after values point to notes of the source that are not given here.

Usually Ki stands for the dissociation constant of the complex between target and ligand, obtained from inhibition or displacement. Turning to `CCCS(=O)(=O)NC[C@H](Nc1ccc(C(=N)N)cc1)c1cc(OCC)c(OCc2ccccc2)cc1NS(C)(=O)=O`, the “Potency for hepsin relative to matriptase” value on hepsin (hepsin vs matriptase) is recorded as “more than 200 fold”. Moreover, the inhibition constant (Ki) at hepsin (read-out: Ki ± SD, 0.5 nM hepsin, S2366 at Km, Ki=IC50/(1+[S]/Km)) was 0.0416 µM; at matriptase, above 10 µM; on uPA (read-out: Ki ± SD, 10 nM uPA, S2444 at Km, Ki=IC50/(1+[S]/Km)), above 10 µM. For the same molecule, on uPA, the “Interference with uPA activity” value is given as “did not interfere”. Moreover, the “Rate of pro-uPA activation per 10^6 cells” value is recorded as 0.4 (0.4, 0.3)^a nM uPA hr^−1 in assay [1] and 0.7 (0.8, 0.6)^a nM uPA hr^−1 in the assay on LnCaP-17 cells (LnCaP-17, 10 μM HI-10331, 100 nM pro-uPA, 37° C., mean of two experiments). Moreover, the “Rate of pro-uPA cleavage remaining, of the control rate” value in the assay on LnCaP-17 cells (LnCaP-17, in the presence of HI-10331) is on record as “about 30%”.
